# Results published in ChEMBL document CHEMBL3639372, “Disubstituted azepan orexin receptor antagonists” (2014).
# Amino acid sequences for entries named in this document (tags omitted).
# UniProt P56718, whole entry: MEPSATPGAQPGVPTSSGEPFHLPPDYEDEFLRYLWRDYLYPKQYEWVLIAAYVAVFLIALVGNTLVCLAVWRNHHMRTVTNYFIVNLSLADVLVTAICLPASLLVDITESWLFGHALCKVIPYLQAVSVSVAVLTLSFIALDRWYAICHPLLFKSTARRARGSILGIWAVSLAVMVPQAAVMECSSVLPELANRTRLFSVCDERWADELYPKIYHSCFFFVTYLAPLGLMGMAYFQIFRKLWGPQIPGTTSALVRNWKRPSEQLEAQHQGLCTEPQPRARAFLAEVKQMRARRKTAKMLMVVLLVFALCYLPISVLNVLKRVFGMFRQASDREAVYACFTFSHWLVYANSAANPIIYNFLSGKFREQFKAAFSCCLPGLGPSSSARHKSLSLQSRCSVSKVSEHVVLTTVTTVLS
# Target: Orexin/Hypocretin receptor type 1 (Rattus norvegicus, UniProt P56718)
# Experiment: Radioligand Binding Assay: Compound potency can be assessed by a radioligand binding assay (described in Bergman et. al. Bioorg. Med. Chem. Lett. 2008, 18, 1425-1430) in which the inhibition constant (Ki) is determined in membranes prepared from CHO cells expressing either the orexin-1 (OX1) or orexin-2 (OX2) receptor.
# Format: cell membranes
row,Compound,Ki
1,Cc1ccc(-c2ncco2)c(C(=O)N2CC(COc3ccc(F)cn3)CCCC2C)c1 (stereo not drawn),110 nM
2,Cc1ccc(-c2nccs2)c(C(=O)N2CC(COc3ccc(F)c(C)c3)CCCC2C)c1 (stereo not drawn),29 nM
3,CC1CCCC(COc2ccc(F)cn2)CN1C(=O)c1ccccc1-n1nccn1 (stereo not drawn),190 nM
